Our source for the activity (quench increase) values is PubChem BioAssay AID720511 (Broad Institute, 2013).

Only a part is listed here, and it is no random draw. The source made the active and inactive calls.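 Rule for the calls: active = mean added fluorescence quench of at least 8% versus neutral control, with both replicates also reaching 8%; inconclusive = only one of the mean or replicate conditions met; inactive = mean below 8% and not both replicates reaching 8%.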

The experiment is described as follows: F508del CFTR correction, initial screen, CFBE line, single point (AID 720511).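 Note: cells transiently co-express mutant CFTR-F508del with the halide-sensitive YFP; corrector assay measuring rescue of mutant channel to the surface after 24 h compound exposure.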 As to conditions: CFBE cells, YFP halide quenching, at 7.58 µM, hits give high values, % fluorescence drop versus neutral controls, stimulated with forskolin plus potentiator P3.
Turning to `O=C(Nc1cc([As](=O)(O)O)ccc1O)c1ccccc1`, the activity (quench increase) is inactive: -3.6%.

`O=P1(N(CCCl)CCCl)OCCCS1` (centres undefined): the activity (quench increase) is inactive: -1.36%. Under `O=C(O)CNc1ccc([As](=O)(O)O)cc1` stands inactive: 0.418%.

Consider `COC(=O)C1(C)COP(=O)(Nc2ccccc2)OC1` (centres undefined), for which the activity (quench increase) was inactive: 1.67%. As for `O=[N+]([O-])c1cccc(NC2=NCC(CBr)S2)c1` (centres undefined), the activity (quench increase) was inactive: 2.13%.

On to `O=[N+]([O-])c1ncn(CCn2ncnc2[N+](=O)[O-])n1`, for which the activity (quench increase) was inactive: -1.83%.

As for `CC(C)(C)C(=O)NC(Sc1ccncn1)C(Cl)(Cl)Cl` (centres undefined), the activity (quench increase) was inactive: 1.36%. Regarding `Cc1ccc(NP(=O)(Oc2ccccc2)Oc2ccccc2)nc1`, the activity (quench increase) was inactive: -3.4%. Under `O=[N+]([O-])c1cc([N+](=O)[O-])c(CCNc2ccccc2)c([N+](=O)[O-])c1` stands inactive: -1.19%; under `COc1ccc(C2=NCC(CBr)S2)cc1` (centres undefined), inactive: -2.19%. Consider `c1cc(-c2nn[nH]n2)ccc1-c1nn[nH]n1`, for which the activity (quench increase) was inactive: -4.19%. Under `CC(C)c1nc(Nc2ccccc2)n(P(=O)(N(C)C)N(C)C)n1` stands inactive: -0.102%; under `CC(C)=N/N=C(\N)N[N+](=O)[O-]`, inactive: -4.33%; under `Nc1ccc([As](=O)(O)c2ccc(N)cc2)cc1`, inactive: -0.511%. As for `C[N+]1=C2C=CC=CC=C2SC12C([N+](=O)[O-])=CC([N+](=O)[O-])=C[C-]2[N+](=O)[O-]` (centres undefined), the activity (quench increase) is inactive: 0.833%. Turning to `Clc1ccc(Cl)c(NC2=NCC(CBr)S2)c1` (centres undefined), the activity (quench increase) is inactive: 0.17%. Regarding `Cc1ccc(OP(=O)(Nc2nccs2)Oc2ccc(C)cc2)cc1`, the activity (quench increase) was inactive: 0.0045%. On to `CN(C(=O)Cc1ccc(Cl)c(Cl)c1)[C@H]1CCCC[C@H]1N1CCCC1`, for which the activity (quench increase) was inactive: -0.049%. `Cc1ccc(N/C(=N/P(=O)(N2CCOCC2)N2CCOCC2)N2CCOCC2)cc1`: the activity (quench increase) is inactive: -3.2%. Regarding `NC(=O)c1cc([N+](=O)[O-])cc([N+](=O)[O-])c1N`, the activity (quench increase) was inactive: -1.86%. Under `O=C(NC(Sc1ccncn1)C(Cl)(Cl)Cl)c1ccccc1` (centres undefined) stands inactive: 0.9%; under `Nc1cc(N)c2nonc2c1[N+](=O)[O-]`, inactive: 0.422%.

On to `CCn1c(=O)n(C2CCN(CC3CCCCCCC3)C[C@H]2CO)c2ccccc21` (some centres undefined), for which the activity (quench increase) was inactive: 2.03%. Take `Cc1ccc(NP(=O)(Oc2ccccc2F)Oc2ccccc2F)nc1`: the activity (quench increase) is inactive: -1.13%.

In the case of `CN(C(=O)Cc1ccc(Cl)c(Cl)c1)[C@H]1CCCC[C@@H]1N1CCCC1`, the activity (quench increase) was inactive: -3.2%. On to `O=P(Nc1nc2ccc(Cl)cc2s1)(c1ccccc1)c1ccccc1`, for which the activity (quench increase) was inactive: 4.61%. Regarding `CN(C)P(=O)(N(C)C)n1c(Nc2ccccc2)nnc1-c1ccccc1`, the activity (quench increase) is inactive: -2.23%. For the compound `CC(=O)Nc1ccc([As](=O)(O)O)cc1`, the activity (quench increase) is inactive: 4.64%. On to `O=C(O)c1ccccc1[As](=O)(O)O`, for which the activity (quench increase) is inactive: -2.09%.

In the case of `CCCC1OP(N)(=O)OCC1CC` (centres undefined), the activity (quench increase) was inactive: -1.04%. Under `Nc1cccc2ccc([As](=O)(O)O)cc12` stands inactive: -1.65%; under `CN(C(=O)Cc1ccccc1)C1CC[C@@]2(CCCO2)C[C@@H]1N1CCCC1` (some centres undefined), inactive: 0.977%; under `O=P1(N(CCCl)CCCl)OCCC2CCCCN21` (centres undefined), inactive: 1.91%. As for `c1ccc(-c2nn[nH]n2)c(-c2nn[nH]n2)c1`, the activity (quench increase) is inactive: -2.42%. Under `Cc1ccc(NP(=O)(Oc2cccc(C)c2)Oc2cccc(C)c2)nc1` stands inactive: 1.54%; under `CCNC(=S)/N=C(\N)N[N+](=O)[O-]`, inactive: -0.09%; under `O=C(NC1CCS(=O)(=O)C1)NP(=S)(Oc1ccccc1)Oc1ccccc1` (centres undefined), inactive: -0.459%.

For `CC(NC(=O)COC(=O)C(O)(c1ccccc1)c1ccccc1)c1ccccc1` (centres undefined), the activity (quench increase) was inactive: 1.32%.

Regarding `Cc1ccccc1OP(=O)(Nc1ccccn1)Oc1ccccc1C`, the activity (quench increase) was inactive: -0.076%. For `O=c1c2cc([N+](=O)[O-])ccc2[nH]c2c([N+](=O)[O-])cc([N+](=O)[O-])cc12`, the activity (quench increase) is inactive: -12.7%.

`CN(C)C(=O)Oc1noc2ccccc12`: the activity (quench increase) was inactive: 2.37%. In the case of `O=C(OC1CN2CCC1CC2)c1ccccc1` (centres undefined), the activity (quench increase) is inactive: -0.829%. Under `Cc1ccc(OP(=O)(Nc2ccccn2)Oc2ccc(C)cc2)cc1` stands inactive: -2.59%; under `CC(C)(C)C(=O)NC(Sc1ccccc1)C(Cl)(Cl)Cl` (centres undefined), inactive: -0.317%.

For `CCc1cc(O)c([N+](=O)[O-])c(C)c1[N+](=O)[O-]`, the activity (quench increase) is inactive: 2.72%. On to `CCOc1ccc(C2=NCC(CBr)S2)cc1` (centres undefined), for which the activity (quench increase) was inactive: 1.24%.

`CC(=O)Nc1ccc([As](=O)(O)O)c(O)c1`: the activity (quench increase) is inactive: 1.15%. Turning to `CC(=O)Nc1ccc(Oc2c([N+](=O)[O-])cc([N+](=O)[O-])cc2[N+](=O)[O-])cc1`, the activity (quench increase) is inactive: 0.639%. As for `Cc1ccccc1CN(C)C(=O)COC(=O)C(O)(c1ccccc1)c1ccccc1`, the activity (quench increase) was inactive: 2.76%. Turning to `C[C@H]1OP(=O)(Oc2ccccc2)C[C@@H]2O[C@@H]21` (some centres undefined), the activity (quench increase) is inactive: 0.383%.

Turning to `C[C@@H]1C=CCP(=O)(Oc2ccccc2)O1` (some centres undefined), the activity (quench increase) is inactive: -0.029%. As for `CC(=O)c1ccc(N2CC2c2ccncc2)cc1` (centres undefined), the activity (quench increase) is inactive: -0.258%. For the compound `N#C/C(=C\c1ccc(N(CCBr)CCBr)cc1)C(N)=O`, the activity (quench increase) is inactive: -1.22%. For the compound `COC(=O)C1(C)COP(=O)(NCc2ccccc2)OC1` (centres undefined), the activity (quench increase) was inactive: 4.5%. For the compound `O=P(Nc1nc2ccccc2s1)(c1ccccc1)c1ccccc1`, the activity (quench increase) was inactive: 4.21%. Under `C[C@H]1OP(=O)(Oc2ccccc2)[C@H](O)[C@H](O)[C@H]1N=[N+]=[N-]` (some centres undefined) stands inactive: -1.05%. Take `O=P(Nc1ccccn1)(c1ccc(Br)cc1)c1ccc(Br)cc1`: the activity (quench increase) is inactive: -2.9%. In the case of `CN(C)C1(CNC(=O)c2ccc(Cl)c(S(N)(=O)=O)c2)CCCCC1`, the activity (quench increase) is inactive: -1.05%. Take `COc1ccc(N)c([N+](=O)[O-])c1[N+](=O)[O-]`: the activity (quench increase) was inactive: 1.69%.

With `Nc1ccc(CCCCOc2ccccc2)cc1`, the activity (quench increase) is inactive: 2.76%.

For `C/C(N)=N\P(=O)(OCc1ccccc1)OCc1ccccc1`, the activity (quench increase) was inactive: 1.74%.

Consider `Nc1ccc([As](=O)(O)c2ccc([N+](=O)[O-])cc2)cc1`, for which the activity (quench increase) was inactive: -0.189%. Consider `O=[As](O)(c1ccccc1)c1ccc(O)cc1`, for which the activity (quench increase) is inactive: -1.12%. Consider `O=[N+]([O-])c1ncn(CCn2cnc([N+](=O)[O-])n2)n1`, for which the activity (quench increase) was inactive: -1.16%.
